The values below come from US20130315918A1 (published 2013).

Protein sequences, listed by entry. Tags and fused reporters are not part of them. Chains listed by the source or under a name are the forms on record and can include a tag or linker. Residues count along the entry.
UniProt P15692, other isoform, or with tags, fused parts or gaps limits assumed: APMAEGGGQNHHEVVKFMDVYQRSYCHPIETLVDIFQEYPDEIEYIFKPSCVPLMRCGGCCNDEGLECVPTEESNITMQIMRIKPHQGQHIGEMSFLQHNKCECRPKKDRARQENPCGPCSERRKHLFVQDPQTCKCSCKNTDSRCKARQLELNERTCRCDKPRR
UniProt P15692, 214-315 limits assumed: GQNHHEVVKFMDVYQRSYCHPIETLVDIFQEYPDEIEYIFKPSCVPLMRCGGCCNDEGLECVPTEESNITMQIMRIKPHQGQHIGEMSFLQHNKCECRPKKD
UniProt P15692, 207-315 limits assumed: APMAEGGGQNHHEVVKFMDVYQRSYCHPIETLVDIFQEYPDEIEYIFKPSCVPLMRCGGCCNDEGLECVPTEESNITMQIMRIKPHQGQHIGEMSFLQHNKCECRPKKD
UniProt Q00731, other isoform, or with tags, fused parts or gaps limits assumed: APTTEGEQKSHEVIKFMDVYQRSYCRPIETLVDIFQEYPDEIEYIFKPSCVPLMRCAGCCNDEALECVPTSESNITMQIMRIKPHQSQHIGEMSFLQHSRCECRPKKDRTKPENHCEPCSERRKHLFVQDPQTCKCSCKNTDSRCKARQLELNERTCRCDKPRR

Changes are numbered by the printed parent chain. Where “and” joins values, the source holds several entries; their conditions need not be identical. Equal entries are not always repeated.

The target in assay [1] is T1, human VEGF (hVEGF) (human, UniProt P15692-4 27-191, limits assumed). Put plainly: cell-based or functional assay.
The target in assay [2] is T2, human VEGF residues 8-109 (hVEGF8-109) (human, UniProt P15692 214-315).
T2 construct: range 8-109; Dimer in the crystals (one VEGF dimer with 2 Fab); Range counts on the mature protein, not on the precursor
Description: BIAcore-3000, Fab over immobilized hVEGF8-109.

The target of assay [3] is T1, human VEGF (hVEGF). Description: SPR.
Assay [4] deals with T3, murine VEGF (mVEGF) (mouse, UniProt Q00731-2 27-190, limits assumed).
T3 construct: also called mouse VEGF; mVEGF-A
Description: SPR.

Assay [5] concerns the target T3, murine VEGF (mVEGF). Description: solution phase competition assay.
Assay [6] has as its target T3, murine VEGF (mVEGF). Description: fluorescence quenching assay.
Assay [7] has as its target T3, murine VEGF (mVEGF). Description: cell-based or functional assay.
The target in assay [8] is T3, murine VEGF (mVEGF). Description: Fab and mVEGF (Table 1).
Assay [9] has as its target T3, murine VEGF (mVEGF). Description: Fab and mVEGF, koff/kon (Table 1).
Assay [10] has as its target T3, murine VEGF (mVEGF). Put plainly: Fab and mVEGF; on rate by fluorescence quenching in solution (Table 1).
Assay [11] addresses T3, murine VEGF (mVEGF). Put plainly: SPR (Table 1).
Assay [12] concerns the target T3, murine VEGF (mVEGF). Description: data not shown.
In assay [13] the target is T3, murine VEGF (mVEGF). Description: Fab and mVEGF; on rate by fluorescence quenching in solution, with BIAcore SPR (Table 1).
Assay [14] concerns the target T1, human VEGF (hVEGF). Put plainly: competition-binding phage ELISA at 25 C.
Assay [15] addresses T3, murine VEGF (mVEGF). Description: competition-binding phage ELISA at 25 C.
The target in assay [16] is T3, murine VEGF (mVEGF). Description: Fab and mVEGF; value in parentheses, method not explained (Table 1).
For assay [17], the target named is T1, human VEGF (hVEGF). Put plainly: BIAcore-3000, Fab over immobilized hVEGF.
Assay [18] has as its target T3, murine VEGF (mVEGF). Put plainly: BIAcore-3000, Fab over immobilized mVEGF.
Assay [19] concerns the target T1, human VEGF (hVEGF). Description: binding kinetics (FIG. 32).
In assay [20] the target is T1, human VEGF (hVEGF). Put plainly: BIAcore (FIG. 8).
Assay [21] concerns the target T3, murine VEGF (mVEGF). Description: BIAcore (FIG. 8).
Assay [22] addresses T4, phage-displayed hVEGF (hVEGF1-109) (human, UniProt P15692 207-315).
T4 construct: range 1-109; Fusion partner on phage not described; also called hVEGF displaying phage; hVEGF-phage
Description: competitive solution binding ELISA with hVEGF displaying phage.

Assay [23] deals with T3, murine VEGF (mVEGF). Description: solution competition binding assay, Fab on phage (FIG. 7).
Assay [24] has as its target T1, human VEGF (hVEGF). Put plainly: solution competition binding assays with phage-displayed proteins (FIG. 7).
The target of assay [25] is T1, human VEGF (hVEGF). Put plainly: SPR, fluorescence quenching and solution competition.

B1: YADS2 Fab (Fab, V domains shown)
VH: EVQLVESGGGLVQPGGSLRLSCAASGFAISDYDIHWVRQAPGKGLEWVADIAPYAGATAYADSVKGRFTISADTSKNTAYLQMNSLRAEDTAVYYCSRSSYAYYAAMDYWGQGTLVTVSS
VL: DIQMTQSPSSLSASVGDRVTITCRASQSYAYAVAWYQQKPGKAPKLLIYDASYLYSGVPSRFSGSGSGTDFTLTISSLQPEDFATYYCQQAYSSPDTFGQGTKVEIKR
For the molecule B1, in the assay with human VEGF (hVEGF) [1], the “VEGF induced HUVEC proliferation, IC50” value was roughly 12 nM. In [2], the Kd worked out at 10 nM, the koff turned out to be 0.01 s⁻¹ and the kon is 1e+06 M⁻¹ s⁻¹.

B2: G6-31 Fab (Fab, V domains shown)
VH: EVQLVESGGGLVQPGGSLRLSCAASGFTISDYWIHWVRQAPGKGLEWVAGITPAGGYTYYADSVKGRFTISADTSKNTAYLQMNSLRAEDTAVYYCARFVFFLPYAMDYWGQGTLVTVSS
VL: B1 VL with S28D, Y29V, A30S, Y31T, D50S, Y53F, A91G, S93G, S94N, D96F
notes: To be rechecked; also called Fab-G6-31
Turning to B2, the “fold improvement in off rate over G6” value in the assay with human VEGF (hVEGF) [3] was 8 fold; with murine VEGF (mVEGF) [4], 13 fold. The molecule further yielded an IC50 in the assay with murine VEGF (mVEGF) [5] of 0.03 nM. For the same molecule, in the assay with murine VEGF (mVEGF) [5], the “fold improvement in IC50 over G6” value was in the range of 20 to 60 fold. The “fold improvement in on-rate over G6” value in the assay with murine VEGF (mVEGF) [6] amounted to 8 fold. For the same molecule, the “HuVEC growth inhibition, improvement over G6” value with human VEGF (hVEGF) [1] and with murine VEGF (mVEGF) [7] was 100 fold in each case. For the same molecule, the off-rate (koff) in the assay with murine VEGF (mVEGF) [8] turned out to be 3.5e-05 s⁻¹. The affinity in the assay with murine VEGF (mVEGF) [9], expressed as Kd, was 0.016 nM. This molecule also came in with a kon with murine VEGF (mVEGF) [10] of 2.16e+06 M⁻¹ s⁻¹. For the same molecule, the “fold improvement in off-rate over G6” value with murine VEGF (mVEGF) [11] is roughly 4 fold.

B3: B20 Fab (Fab, V domains shown)
VH: EVQLVESGGGLVQPGGSLRLSCAASGFTINASWIHWVRQAPGKGLEWVGAIYPYSGYTNYADSVKGRFTISADTSKNTAYLQMNSLRAEDTAVYYCARWGHSTSPWAMDYWGQGTLVTVSS
VL: B1 VL with S28D, Y29V, A30S, Y31T, D50S, Y53F, A91S, S93T, S94T, D96P
notes: also called B20 antibody; B20 clone
Regarding B3, the binding result with murine VEGF (mVEGF) [12] is on record as “binds”.

B4: G6 Fab (Fab, V domains shown)
VH: B2 VH
VL: B1 VL with S28D, Y29V, A30S, Y31T, D50S, Y53F, A91S, S93T, S94T, D96P
notes: also called G6 antibody; FabG6
For the molecule B4, the IC50 was 0.67 nM in the assay with murine VEGF (mVEGF) [5], 0.5 to 1 nM with human VEGF (hVEGF) [14] and 0.5 to 1 nM in the assay with murine VEGF (mVEGF) [15]. Also, the koff in the assay with murine VEGF (mVEGF) [8] came out at 0.00016 s⁻¹. Besides, in the assay with murine VEGF (mVEGF) [9], binding was characterised by a dissociation constant (Kd) of 0.91 nM. The kon with murine VEGF (mVEGF) [13] came to 175000 M⁻¹ s⁻¹; in the assay with murine VEGF (mVEGF) [16], 193000 M⁻¹ s⁻¹.

B5: Fab-YS1 (Fab, V domains shown)
VH: EVQLVESGGGLVQPGGSLRLSCAASGFSISSSSIHWVRQAPGKGLEWVAYISPSSGSTSYADSVKGRFTISADTSKNTAYLQMNSLRAEDTAVYYCSRYYSSSYYYSYYYAMDYWGQGTLVTVSS
VL: B1 VL with A91S, S93Y, D96Y
notes: also called YS1 Fab
As for B5, in the assay with human VEGF (hVEGF) [17], the affinity, expressed as Kd, was 60 nM; the koff is 0.0028 s⁻¹; the kon was 50000 M⁻¹ s⁻¹.

B6: YADS3 Fab (Fab, V domains shown)
VH: B1 VH with A28S, D50A, A55S, A57S, A59Y, A105S
VL: B1 VL with S28A, Y29S, A30Y, A32D, D50A, A91Y, S93Y, S94A, D96A
With B6, in the assay with murine VEGF (mVEGF) [18], the Kd stood at 3.7 nM, the koff was found to be 0.005 s⁻¹ and the kon is 2e+06 M⁻¹ s⁻¹. In assay [2], the equilibrium dissociation constant (Kd) came out at 2 nM, the koff came out at 0.003 s⁻¹ and the kon worked out at 1e+06 M⁻¹ s⁻¹.

B7: G6-23 Fab (Fab, V domains shown)
VH: B2 VH
VL: DIQMTQSPSSLSASVGDRVTITCRASQDVSTAVAWYQQKPGKAPKLLIYSASFLYSGVPSRFSGSGSGTDFTLTISSLQPEDFATYYCKQGYANPWTFGQGTKVEIKR
notes: also called Fab-G6-23; FabG6-23
Consider B7, for which the koff with human VEGF (hVEGF) [19] was 0.0001 s⁻¹ and 0.0002 s⁻¹; with murine VEGF (mVEGF) [8], 0.000121 s⁻¹. The kon with human VEGF (hVEGF) [19] was greater than 1e+06 M⁻¹ s⁻¹; with murine VEGF (mVEGF) [10], 5.66e+06 M⁻¹ s⁻¹. In addition, the IC50 is 0.01 nM with murine VEGF (mVEGF) [5], 0.02 nM in [22], 0.02 nM with murine VEGF (mVEGF) [23] and 0.02 nM with human VEGF (hVEGF) [24]. Further, in the assay with murine VEGF (mVEGF) [5], the “fold improvement in IC50 over G6” value fell in the range of 20 to 60 fold. In addition, the “fold better Kd than G6” value in the assay with human VEGF (hVEGF) [20] and with murine VEGF (mVEGF) [21] was 7 fold throughout. In addition, in the assay with murine VEGF (mVEGF) [6], the “fold improvement in on-rate over G6” value is 20 fold. Besides, the “HuVEC growth inhibition, improvement over G6” value with human VEGF (hVEGF) [1] and with murine VEGF (mVEGF) [7] was 100 fold in each case. The molecule also gave a Kd with murine VEGF (mVEGF) [9] of 0.021 nM.

B8: G6-8 Fab (Fab, V domains shown)
VH: B2 VH
VL: B7 VL with K89Q, Y92A, A93G, N94S, W96L
notes: To be rechecked
For the molecule B8, the “fold improvement in on-rate over G6” value with murine VEGF (mVEGF) [6] stood at 6 fold. Moreover, in the assay with murine VEGF (mVEGF) [8], the koff is 0.000129 s⁻¹. The molecule further yielded a Kd in the assay with murine VEGF (mVEGF) [9] of 0.077 nM. The kon in the assay with murine VEGF (mVEGF) [10] turned out to be 1.68e+06 M⁻¹ s⁻¹. The binding result with human VEGF (hVEGF) [25] is listed as “binds”.

B9: YADS1 Fab (Fab, V domains shown)
VH: EVQLVESGGGLVQPGGSLRLSCAASGFDIYDDDIHWVRQAPGKGLEWVAYIAPSYGYTDYADSVKGRFTISADTSKNTAYLQMNSLRAEDTAVYYCSRSSDASYSYSAMDYWGQGTLVTVSS
VL: DIQMTQSPSSLSASVGDRVTITCRASQASYSSVAWYQQKPGKAPKLLIYAASYLYSGVPSRFSGSGSGTDFTLTISSLQPEDFATYYCQSSASPATFGQGTKVEIKR
notes: Purified free Fab from E. coli
Take B9: in the assay with murine VEGF (mVEGF) [18], the Kd is greater than 1000 nM. In assay [2], the Kd is 1.8 nM, the koff was 0.0005 s⁻¹ and the kon is 300000 M⁻¹ s⁻¹.
